# Where “and” joins values, the source holds several entries; their conditions need not be identical. Identical values can stand only once.
# Columns and labels:
# [1] = Kinetic solubility test in PBS; format: physicochemical; conditions: PBS (100 mM, pH 7.4)
# Protocol: Internal standard (IS) solutions (propranolol and tolbutamide) were dissolved by acetonitrile (50 ng/ml propranolol + 200 ng/ml tolbutamide).
# The sample solutions were analyzed using LC-MS/MS. All the samples (test samples and references) for detection were prepared in duplicate. The conditions for LC-MS/MS are shown in Support Materials (Supplementary Table S1).
# [2] = PAMPA, incubation 18,000 s, n = 2
# Protocol: Verapamil and digoxin solutions, used as reference, prepared in the same manner as the test drugs. Tolbutamide dissolved with acetonitrile (200 ng/ml) was used as IS.
# The resultant supernatants were determined by LC-MS/MS. The specific assay conditions are shown in Support Materials (Supplementary Table S2).
# [3] = Plasma protein binding rate, rapid equilibrium dialysis, human plasma; format: in vitro ADME; conditions: 10 µM, 37°C, 4 h
# Protocol: (§1) The plasma protein binding rate of the samples was investigated using rapid equilibrium dialysis method ([Waters et al., 2008]; [Jiang C. et al., 2019]; [Yuan et al., 2020]). In brief, the unbound drugs (or references) were separated from plasma (human and rat) in a 96-well plate with a semipermeable membrane through which only unbound drug can permeate. The equilibrium unit was sealed and incubated at 37°C in a mixer at 100 rpm for 4 h.
# (§2) The drugs (PDG and PINL) and reference (diclofenac and propranolol) stock solutions (10 mM) were prepared by dissolving them in DMSO and further diluting with acetonitrile-water (70:30, v/v), yielding their respective working solution (0.1 mM). Then, 50 ng/ml of midazolam and 50 ng/ml of tolbutamide (in acetonitrile) were used as IS.
# (§3) After reaching equilibrium, the concentrations of the samples in both the plasma and the buffer compartment were determined. According to the specification, the resultant supernatant was collected, properly diluted by distilled water, vortexed for 10 min, and finally analyzed using LC-MS/MS. All the samples (PDG, PINL, diclofenac, and propranolol) for detection were prepared in duplicate. […]
# (§4) The concentrations of the samples were determined by internal standard methods, in which the data were acquired and analyzed by Analyst 1.6.1 software station (AB Sciex Corporation, Boston, MA, United States). […]
# [4] = Plasma protein binding rate, rapid equilibrium dialysis, rat plasma; format: in vitro ADME; conditions: 10 µM, 37°C, 4 h
# Protocol: as §1, §2, §3, §4
# [5] = Metabolic stability in human liver microsomes
# Protocol: (§5) Then, this incubation plate containing mixed solution and NADPH regeneration system was agitated on a plate shaker at 100 rpm and pre-incubated at 37°C for 5 min. Subsequently, 300 μL of precooled quenching solution was added to each well of another deep-well plate (quench plate), which was cooled on ice. The solution in the incubation plate was transferred into the well of the quench plate as the samples in 0 min before it was mixed with another 20 µL of NADPH regeneration solution in the wells.
# (§6) The incubation plate was incubated at 37°C for 0, 10, 30, and 90 min. At each time point, 100 μL of the supernatant in the incubation plate was removed from each well, quenched immediately, transferred to the wells of the ice-cold quench plate, and vortexed for 5 min. Additionally, an equal volume of pre-warmed fresh regeneration solution was added to the incubation plate for compensation after every withdrawal. […] Each test was operated in duplicate. The determination conditions of LC-MS/MS are shown in Support Materials (Supplementary Table S4).
# (§7) The in vitro T1/2 was determined by converting the analyte/IS peak area ratios to percentage of drug remaining using the initial peak (t = 0 min) area ratio values as 100%.
# [6] = Metabolic stability in rat liver microsomes; conditions: RLM with NADPH
# Protocol: as §5, §6, §7
# [7] = Pharmacokinetic study in rat plasma after intravenous and oral administration; format: in vivo, Sprague-Dawley (SD) rats
# Protocol: (§8) PDG and PINL were dissolved in a solution consisting DMSO, Solutol HS 15, and normal saline (1:3:16, v/v/v) at a concentration of 1 mg/ml (used in intravenous administration groups) and 4 mg/ml (used in oral administration groups).
# (§9) Eighteen male SD rats were housed in the barrier rodent facilities to acclimatize for a week in animal quarters, which had air conditioning and an automatically controlled photoperiod of 12 h of light daily. Rats had free access to standard chow diet and water until 12 h prior to the beginning of the experiment, at which time only water was accessed freely. The rats were randomly divided into six groups, with three rats in each group. Groups 1 and 2 received PDG and PINL intravenously at a dose of 5 mg/kg by tail vein bolus injection (IV, with dose volume of 5 ml/kg) for a single-dose administration. Groups 3 and 4 were given PDG and PINL at 40 mg/kg by oral gavage administration (PO, with dose volume of 5 ml/kg) for a single dose. The rats in these groups (groups 1–4) were used to determine their plasma samples for the pharmacokinetic study of the tested drugs (PDG and PINL). Groups 5 and 6 were used to determine their urine samples for the excretion study via with tail vein bolus injection (IV, with dose volume of 5 ml/kg) of PDG and PINL.
# (§10) The stock standard solutions (1.0 mg/ml) of tested drugs (PDG and PINL) and IS (diclofenac sodium for PINL urine samples and tolbutamide for other samples) were prepared by dissolving the components in DMSO and vortexing. A series of calibration standard working solutions (20.0, 10.0, 2.0, 1.0, 0.2, 0.04, and 0.02 μg/ml) was prepared freshly by diluting the stock solution stepwise using ACN-water (70:30, v/v). The quality control (QC) working solutions of PDG and PINL were diluted to the concentration of 16.0, 0.8, and 0.06 μg/ml. PINL was determined in urine samples by preparing the calibration standard working solutions (20.0, 10.0, 2.0, 1.0, 0.4, 0.2, and 0.1 μg/ml) in the same manner. The IS working solutions of 200 ng/ml of tolbutamide or 50 ng/ml of diclofenac sodium were prepared by dilution of the stock standard solution with acetonitrile solution. All the solutions were stored at 4°C and brought to room temperature before use.
# (§11) For plasma samples, the calibration standards were prepared by spiking 3 μL of the appropriate standard working solutions of PDG (or PINL) to 57 μL of blank rat plasma to prepare the final plasma concentration of PDG (or PINL) ranging from 1 ng/ml to 2000 ng/ml. QC samples (3, 40, 800, and 1,600 ng/ml) were prepared separately. For PDG urine samples, the calibration standards were prepared by spiking 5 μL of the appropriate standard working solutions of PDG to 95 μL blank rat urine to prepare the final urine concentration of PDG ranging from 1 ng/ml to 2000 ng/ml. QC samples (3, 40, 800, and 1,600 ng/ml) were prepared separately. For PINL urine samples, the calibration standards were prepared by spiking 5 μL of the appropriate standard working solutions of PINL to 95 μL blank rat urine to make final urine concentration of PINL ranging from 5 ng/ml to 2000 ng/ml. QC samples (15, 30, 400, and 1,600 ng/ml) were prepared separately.
# Blood samples were collected via orbital venous plexus puncture into heparinized microfuge tubes at intervals of 0, 0.083, 0.25, 0.5, 1, 2, 4, 8, 10, 24, and 30 h after administration. The plasma samples were obtained by centrifuging the blood samples at 6,000 rpm for 10 min at 4°C and storing them at −20°C until further analysis. For the plasma calibration standards, QC plasma samples, and the testing plasma samples, 40 µL of the plasma samples were extracted with 120 µL of IS working solution (tolbutamide) by vortex mixing for 1 min and at 4°C centrifugation for 10 min at 13,000 rpm. The supernatant was separated and evaporated under a gentle stream of nitrogen. The residue was reconstituted with 120 µL of 30% ACN followed by vortex mixing. Then, the solutions were centrifuged at 13,000 rpm for 10 min at 4°C. […]
# [8] = Urinary excretion study after intravenous administration; format: in vivo, Sprague-Dawley (SD) rats; conditions: IV 5 mg/kg; for excretion amount in urine: rat
# Protocol: as §8, §9, §10, §11
# Urine samples were collected while the rats remained isolated in metabolic cages at intervals of 0, 2, 4, 8, 24, and 30 h after administration, and the volumes of the urine were measured. The urine samples were also stored at −20°C before tested by LC-MS/MS. […]
# [9] = HLM with NADPH, 0.5 mg/ml microsomal protein, n = 2
# [10] = 0.5 mg/ml microsomal protein, n = 2
substance,measurement,setting,value
Pinoresinol [PINL],kinetic solubility,[1],85.87 ± 3.84 µg/mL
same,Peff,[2],"176.84 cm/s, ×10^–7"
same,average plasma protein binding rate,[3],89.03%
same,average plasma protein binding rate,[4],57.74%
same,CLint,[5]; [9],0.9 µL/min/mg
same,T1/2,[5]; [9],"1,509.5 min"
same,t1/2,"[5]; HLM with NADPH, min value expressed in h",25.2 h
same,remaining amount,"[5]; HLM, incubation time 90 min",90.1 ± 6.2%
same,CLint,[6]; [10],9.3 µL/min/mg
same,T1/2,[6]; [10],2.495 h
same,t1/2,[6]; min value expressed in h,2.5 h
same,AUCINF_pred,"[7]; IV 5 mg/kg, n = 3",825.0 ± 54.1 ng·h/mL
same,AUClast,"[7]; IV 5 mg/kg, n = 3",805.0 ± 35.2 ng·h/mL
same,Cl_pred,"[7]; IV 5 mg/kg, n = 3",101 ± 6.67 mL/min/kg
same,HL_Lambda_z,"[7]; IV 5 mg/kg, n = 3",0.34 ± 0.35 h
same,MRTINF_pred,"[7]; IV 5 mg/kg, n = 3",0.26 ± 0.18 h
same,Tmax,"[7]; IV 5 mg/kg, n = 3",0.08 ± 0.00 h
same,Vz_pred,"[7]; IV 5 mg/kg, n = 3",2.83 ± 2.81 L/kg
same,Cmax,"[7]; IV 5 mg/kg, n = 3, 5 mg/kg","2,538.8 ng/ml and 2,538.77 ± 217.7 ng/ml"
same,Cmax,"[7]; IV 5 mg/kg, ng/ml value expressed in molar units",7.10 nM
same,AUCINF_pred,"[7]; PO 40 mg/kg, n = 3",332.4 ± 192.1 ng·h/mL
same,AUClast,"[7]; PO 40 mg/kg, n = 3",317.0 ± 192.0 ng·h/mL
same,Cl_pred,"[7]; PO 40 mg/kg, n = 3",2518 ± 1400 mL/min/kg
same,Cmax,"[7]; PO 40 mg/kg, n = 3",113.1 ± 35.3 ng/mL
same,MRTINF_pred,"[7]; PO 40 mg/kg, n = 3",3.83 ± 1.66 h
same,Tmax,"[7]; PO 40 mg/kg, n = 3",0.33 ± 0.14 h
same,Vz_pred,"[7]; PO 40 mg/kg, n = 3",789.0 ± 608.7 L/kg
same,HL_Lambda_z,"[7]; PO 40 mg/kg, n = 3, 40 mg/kg",3.57 h and 3.57 ± 2.87 h
same,Cmax,"[7]; PO 40 mg/kg, ng/ml value expressed in molar units",0.317 nM
same,"cumulative urinary excretion, % of the dose","[8]; rat urine, for 30 h",0.60%
same,Cumulative Excretion Amount,"[8]; rat urine, within 30 h, n = 3","5,993.1 ± 3,046.5 ng"
same,excretion amount in urine,"[8]; 0–2 h, n = 3","5,440.0 ± 3,011.9 ng"
same,excretion amount in urine,"[8]; 2–4 h, n = 3",201.7 ± 203.0 ng
same,excretion amount in urine,"[8]; 4–8 h, n = 3",351.4 ± 565.5 ng

# — paper PMC8381248, “Comparison of Pinoresinol and its Diglucoside on their ADME Properties and Vasorelaxant Effects on Phenylephrine-Induced Model” (Frontiers in Pharmacology, 2021)
